ASAP1 GAP inh – inhibitors of human ASAP1 ArfGAP activity. Q9ULH1. ASAP1-stimulated ARF1 GTP hydrolysis, GDP FP detection. inhibition, % at 16.5 µM. 0.19% of 360,000 active. AID 624377; in the data active = inhibition above about 25%;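 note: 0% = vehicle with enzyme and substrate and 100% = no enzyme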
MC4R ag barr – activates human MC4R beta-arrestin recruitment; AID 540308; P32245; 0.98% of 360,000 active; U2OS MC4R beta-arrestin complementation, luminescence; percent of melanotan II response, DMSO zero; activation, % at 8.9 µM;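 active = activation above a per-plate cutoff, the mean activation of sample wells on that plate plus 3 SD, cut at about 8% in these data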
ARFGAP1 inhibitor – rat ARFGAP1 inhibition | inhibition, % at 16.5 µM | Q62848 | 0.26% of 360,000 active | Arfgap1-stimulated ARF1 GTP hydrolysis, GDP FP detection;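 active = inhibition above a per-plate limit, mean inhibition of low control wells plus 3 SD, cut at about 25% in these data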;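 note: 0% = DMSO wells with enzyme and 100% = wells lacking Arfgap1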
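Repeats: one replicate per compound; assay system: rat Arfgap1 catalytic domain, aa 1-136; times: enzyme reaction 120 min at 25 °C after 20 min preincubation; detection: FP of antibody-bound GDP Alexa 633 tracer, ex 620/em 688 nm; benchmarks: high control wells lacking Arfgap1, low control full reaction with DMSO; reagent: human ARF1(Δ1-17)-GTP substrate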
NRP1-CendR mod – NRP-1/CendR interaction modulation; 0.85% of 360,000 active; FAM-RPARPAR peptide binding to NRP-1, fluorescence polarization; O14786; inhibition, % at 25 µM;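 active = inhibition or corrected inhibition above about 18%, plus a signal ratio from 0.5 to 1.5, limit read from the data, passing the limit was not always enough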
MC4R antag cAMP – blocks human MC4R cAMP signaling | P32245 | inhibition, % at 6.5 µM | 0.48% of 360,000 active | AID 540295 | MC4R-expressing cells, MTII-stimulated cAMP, LANCE TR-FRET;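 active = inhibition above its plate's cutoff, the mean of tested wells on that plate plus 3 SD, cut at about 29% in these data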;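 note: 0% = Melanotan II alone and 100% = Melanotan II plus saturating MCL0020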
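System: U2OS cells stably expressing human melanocortin 4 receptor (MC4R). Reagent: Melanotan II challenge after compound preincubation. Doses: 6.5 µM. Times: 30-min compound, 1-h challenge, 1-h detection, room temperature. Measured by: TR-FRET with Eu-cAMP and labeled anti-cAMP, 671 nm. Replicates: singlicate.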
UUG fidelity – alters start codon recognition fidelity in yeast. S. cerevisiae UUG-firefly luciferase reporter, luminescence/redox ratio. activity score, % at 18.7 µM. 0.13% of 350,000 active. AID 602363;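 active = replicate mean at a twofold rise or more, about +100% in these data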;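 also: firefly luciferase made from a UUG start codon reports start codon fidelity; reporter light over untreated wells divided by growth signal over untreated wells; some hits fall short of that in this replicate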
The depositor's hits bear a star; . = no result; ! = not active in a repeat. Most compounds without a hit are left out; they make up all but 2.3% or so of the library.

SMILES	ASAP1 GAP inh	MC4R ag barr	ARFGAP1 inhibitor	NRP1-CendR mod	MC4R antag cAMP	UUG fidelity
O=S(=O)(c1ccc(F)cc1)c1nc(-c2ccccc2)oc1N1CCOCC1	6	-4	8	-5	9	-2
O=S(=O)(c1ccccc1)c1nc(-c2ccc(F)cc2)oc1N1CCOCC1	6	-1	4	22*	-5	-19
CN(C)S(=O)(=O)c1ccc(N2CCCC2)c(C(=O)Nc2ccccc2)c1	6	1	3	5	-5	-4
Cc1nnc(NC(=O)c2cc(S(=O)(=O)N(C)C)ccc2N2CCCC2)s1	-8	-4	4	23*	-2	-9
C[C@H](CO)N1C[C@H](C)[C@@H](CN(C)C(=O)C2CCCCC2)Oc2cc(-c3ccc(F)cc3)ccc2S1(=O)=O	.	.	.	.	.	7
COc1ccc(S(=O)(=O)N/N=C\c2ccc3c(c2)OCO3)c(OC)c1	4	0	1	30*	24	-12
O=C(Cc1ccccc1)N1C[C@H]2[C@@H](c3ccccc31)[C@@H](CO)N2C(=O)Cc1ccccc1	.	.	.	.	.	22
CCCCCSc1nc(C)c(CC(=O)O)c(=O)[nH]1	-8	-2	2	20*	1	-19
CCCCCc1c(C)nc(SCC(=O)O)[nH]c1=O	-11	-3	6	-6	1	.
CO[C@@H]1CN(C)C(=O)c2cc(NC(=O)Nc3ccccc3)ccc2OC[C@H](C)N(CC2CC2)C[C@@H]1C	.	.	.	.	.	8
COc1ccc(S(=O)(=O)N(C)C[C@H]2Oc3c(NC(=O)C4CCCCC4)cccc3C(=O)N([C@@H](C)CO)C[C@@H]2C)cc1	.	.	.	.	.	3
Cc1cc(NC(=O)c2ccc(Cl)cc2Cl)n(-c2ccccc2)n1	-3	-2	9	18*	3	-7
C[C@H]1CN([C@@H](C)CO)C(=O)c2cc(NC(=O)Nc3ccccc3)ccc2O[C@@H]1CN(C)S(=O)(=O)c1ccc(F)cc1	.	.	.	.	.	2
O=C(COC(=O)c1ccc(F)c([N+](=O)[O-])c1)NC(=O)NCc1ccccc1	-1	-7	5	22*	-25	-13
COc1ccc(-c2cn(CCNC(=O)[C@H](Cc3ccccc3)NS(=O)(=O)c3ccc(C)cc3)nn2)cc1OC	.	.	.	.	.	67
COc1ccc(CNc2nc(SC)n[nH]2)cc1OC	2	-2	7	1	3	-1
COc1ccc(CNc2n[nH]c(NCc3ccc(OC)c(OC)c3)n2)cc1OC	3	-2	8	20*	2	4
COc1ccc(NC(=O)Nc2ccc3c(c2)C(=O)N([C@H](C)CO)C[C@@H](C)[C@H](CN(C)S(=O)(=O)c2ccc(OC)cc2)O3)cc1	.	.	.	.	.	-3
Cc1ccc(C(=O)Nc2nc(=O)[nH]s2)cc1	-3	0	1	17*!	-1	.
C[C@@H]1CCCCO[C@H](CN(C)C(=O)Nc2ccc(F)cc2)[C@@H](C)CN([C@@H](C)CO)C(=O)c2cc(NC(=O)c3ccccc3)ccc2O1	.	.	.	.	.	-5
CCOc1ccc(C(=O)COC(=O)c2nn(CC)c(=O)c3ccccc23)cc1	17	0	22	19*	7	-4
CCOC(=O)N1CCc2c(sc3c2C(=O)NC(c2ccccc2)N3)C1 (centres undefined)	.	9.0*	.	-30	11	-4
COc1ccc(COc2ccsc2C(=O)Nc2ccc(Cl)cc2)cc1	9	8.7*	2	-8	-7	-3
OCc1ccccc1CNCc1ccccc1	7	-1	2	-6	0	-18
Oc1cc(CNCc2ccccc2)c(O)cc1CNCc1ccccc1	9	-1	13	28*	4	-21
CNC[C@@H]1Oc2c(NS(=O)(=O)c3ccc(F)cc3)cccc2C(=O)N([C@H](C)CO)C[C@H]1C	.	.	.	.	.	-2
CN(C)CCNC(=O)c1cc2c(s1)-c1ccc(Cl)cc1SC2	-1	11*	8	-7	-1	-5
CCC(C)n1nnc2c(=O)oc3ccccc3c21 (centres undefined)	.	-1	.	7	13	-11
Cc1ccc(-n2nnc3c(=O)oc4ccccc4c32)cc1	4	0	1	-2	46*	-13
Cc1ccccc1CN1C(=O)CS/C1=N/N=C/c1ccco1	3	-2	-1	29*	9	-10
CCc1cccc(CC)c1NC(=S)Nc1ccccc1	-14	-3	7	20*	2	.

4 entries drawn at random from the list so far:
SMILES	ASAP1 GAP inh	MC4R ag barr	ARFGAP1 inhibitor	NRP1-CendR mod	MC4R antag cAMP	UUG fidelity
Cc1ccc(C(=O)Nc2nc(=O)[nH]s2)cc1	-3	0	1	17*!	-1	.
C[C@H](CO)N1C[C@H](C)[C@@H](CN(C)C(=O)C2CCCCC2)Oc2cc(-c3ccc(F)cc3)ccc2S1(=O)=O	.	.	.	.	.	7
CCCCCc1c(C)nc(SCC(=O)O)[nH]c1=O	-11	-3	6	-6	1	.
CCOC(=O)N1CCc2c(sc3c2C(=O)NC(c2ccccc2)N3)C1 (centres undefined)	.	9.0*	.	-30	11	-4

Screening data from PubChem BioAssay.
